Drawing on patent publication US20260022153A1 (AMIDEBIO, LLC, priority 2017, published 2026), this text covers Kd for one substance.

The assay addresses IGF1 receptor (IGF1R) (Homo sapiens, UniProt P08069). Briefly: Binding affinity of insulin analogs to the IGF1 receptor (IGF1R). The settings on record: in the absence of glucose. How it is done: SEQ ID NO: 2. SEQ ID NO: 3, SEQ ID NO: 4. […] SEQ ID NO: 6, SEQ ID NO: 5 and SEQ ID NO: 7 for IR and IGF1-R in the absence of glucose. […] Based on these predictions, the mutated insulin analogs are made. Normal mode analysis is then performed for each mutant insulin analog to test for whether the mutated insulin analog is a glucose-responsive insulin analog.

A word on the Kd: it is the equilibrium constant for the complex coming apart. Lower therefore signals tighter binding. In turn, insulin growth factor 1 [IGF1] showed a Kd of 0.04 nM.
